Earlier results in US20230372302A1 (priority 2019, published 2023).
Structures can show the parent of a compound that is named as a salt.

Legend:
[1] = human, in vivo; cited from earlier work
[2] = pH 7.4; cited from earlier work

COc1cc2nc(N(C)CCCNC(=O)C3CCCO3)nc(N)c2cc1OC.Cl (racemic) [ALFUZOSIN, (R,S)—N-[3-[(4-amino-6,7-dimethoxy-2-quinazolinyl)methylamino]propyl] tetrahydro-2-furancarboxamide hydrochloride]
dizziness [1]: 6%
hypotension [1]: 0.4%
syncope [1]: 0.2%

COc1cc2nc(N3CCN(C(=O)C4CCCO4)CC3)nc(N)c2cc1OC (racemic) [TERAZOSIN, (RS)-Piperazine,1-(4-amino-6,7-dimethoxy-2-quinazolinyl)-4-[(tetra-hydro-2-furanyl)carbonyl]-, monohydrochloride, dihydrate]
postural hypotension [1]: 4%
syncope [1]: 0.6%

CCOC(=O)c1ncn2c1CN(C)C(=O)c1cc(F)ccc1-2 [Flumazenil, ethyl 8-fluoro-5,6-dihydro-5-methyl-6-oxo-4H-imidazo[1,5-a](1,4) benzodiazepine-3-carboxylate]
octanol: buffer partition coefficient [2]: 14 to 1

COc1cc2nc(N3CCN(C(=O)c4ccco4)CC3)nc(N)c2cc1OC.Cl [prazosin, 1-(4-amino-6,7-dimethoxy-2-quinazolinyl)-4-(2-furoyl) piperazine]
syncope and symptoms of hypotension, subjects receiving [1]: 6-12%

CCOc1ccccc1OCCN[C@H](C)Cc1ccc(OC)c(S(N)(=O)=O)c1 [tamsulosin, (−)-(R)-5-[2-[[2-(o-Ethoxyphenoxy)ethyl]amino]propyl]-2-methoxybenzenesulfon-amide, monohydrochloride]
incidence of hypotension, syncope, vertigo [1]: 0.2-0.6%
